Like-named read-outs stand apart in the source and are kept apart here.
Assays:
[1] = Solubility of deferasirox in water from composition with sodium carbonate, dissolved with magnetic stirrer; format: physicochemical; conditions: magnetic stirrer for 3 minutes
Description: Table 1 below, without being limited to the compounds and their amounts mentioned, illustrates the pH values and solubility data of a pharmaceutical composition comprising 500 mg of deferasirox combined with various amounts of sodium carbonate in a suitable carrier when the said composition was dissolved using a magnetic stirrer for 3 minutes.

[2] = cited from earlier work
[3] = at the physiological pH of the intestine; SmPC of Exjade® dispersible tablets; cited from earlier work

## 4-[3,5-bis(2-hydroxyphenyl)-[1,2,4]triazol-1-yl]benzoic acid [deferasirox]
[1]; composition with 500 mg deferasirox and 40 mg sodium carbonate
  Solubility of deferasirox in water: 270 µg/mL
[1]; composition with 500 mg deferasirox and 60 mg sodium carbonate
  Solubility of deferasirox in water: 460 µg/mL
[1]; composition with 500 mg deferasirox and 100 mg sodium carbonate
  Solubility of deferasirox in water: 760 µg/mL
[1]; composition with 500 mg deferasirox and 120 mg sodium carbonate
  Solubility of deferasirox in water: 900 µg/mL
[1]; composition with 500 mg deferasirox and 140 mg sodium carbonate
  Solubility of deferasirox in water: 1030 µg/mL
[1]; composition with 500 mg deferasirox and 160 mg sodium carbonate
  Solubility of deferasirox in water: 1090 µg/mL
[2]; deferasirox alone, without sodium carbonate
  solubility of deferasirox alone: 40 µg/mL
[2]; in water at 37°C
  solubility: 38 µg/mL
[3]
  solubility: about 40 mg/L
